Test results from ChEMBL document CHEMBL5727136, “Inhibitors of RPN11” (2018).

Experiment: Biochemical Assay: In brief, this Rpn11 bioassay employs a fluorescent polarization readout based on the ability of the 26S proteasome to cleave the protein substrate including four tandem ubiquitin proteins fused to a peptide having a unique cysteine labeled with a fluorophore. Cleavage of this substrate by Rpn11 at the junction between the fourth ubiquitin and the peptide, releases the low molecular weight fluorescent peptide. Accordingly, inhibition of fluorescence correlates with inhibition of Rpn11. Inhibition is reported as the half maximal inhibitory concentration (IC50) for the candidate compound.The catalytic JAB1/MPN/Mov34 metalloenzyme (JAMM) motif of Rpn11 is found in 7 different human proteins including the Csn5 subunit of the COP9 signalosome, AMSH, AMSH-LP, the BRCC36 subunit of BRISC, MPND, and MYSM1. All of these enzymes cleave the isopeptide linkage that joins ubiquitin (or the ubiquitin-like protein Nedd8 in the case of Csn5) to a second molecule of ubiquitin or to a substrate. The conserved JAMM domain has the consensus sequence EXnHS/THX7SXXD, in which the histidine (His) and aspartic acid (Asp) residues bind the Zn2+ ion and the fourth coordination site is occupied by a water molecule that is engaged in hydrogen bonding with a conserved glutamic acid (Glu). […]

CNC(=O)c1cnc2c(S)cccc2c1
IC50: 1.6 µM

O=C(NCCc1nccs1)c1cnc2c(S)cccc2c1
IC50: 4.5 µM
